One experiment deals with T1, dopamine D1 receptor (Rattus norvegicus, UniProt P18901).
T1 construct: membrane preparations from dopamine-rich corpus striatum (caudatoputamen) tissue from rat forebrain; from tissue; host or cells: corpus striatum (caudatoputamen) of adult male Sprague-Dawley rats
As to the kind of experiment: Radioligand competition assay, D1 receptor, rat corpus striatum membranes, [3H]SCH-23390. The format is binding. The note with it: rat striatal membranes, 0.3 nM [3H]SCH-23390, 30 minutes at 30° C; read-out: Affinity at rat dopamine receptors, D1. For orientation: Displacement assays read how much labelled ligand stays bound in the presence of the test substance.

Protein sequences, listed by entry. Tags and fused reporters are not part of them. Residues count along the entry.
UniProt P18901, whole entry: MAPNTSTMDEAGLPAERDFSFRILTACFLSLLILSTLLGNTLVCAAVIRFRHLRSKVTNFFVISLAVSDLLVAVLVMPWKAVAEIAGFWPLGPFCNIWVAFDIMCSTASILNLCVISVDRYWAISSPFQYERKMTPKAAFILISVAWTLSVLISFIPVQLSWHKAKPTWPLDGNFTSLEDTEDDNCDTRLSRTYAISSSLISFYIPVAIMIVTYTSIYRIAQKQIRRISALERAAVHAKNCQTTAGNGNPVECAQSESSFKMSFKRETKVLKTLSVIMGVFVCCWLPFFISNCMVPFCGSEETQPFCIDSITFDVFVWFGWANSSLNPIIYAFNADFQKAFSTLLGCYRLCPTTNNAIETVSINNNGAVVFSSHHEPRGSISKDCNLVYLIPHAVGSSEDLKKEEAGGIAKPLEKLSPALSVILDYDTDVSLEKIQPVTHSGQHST
UniProt P61169, 1-415 isoform P61169-2: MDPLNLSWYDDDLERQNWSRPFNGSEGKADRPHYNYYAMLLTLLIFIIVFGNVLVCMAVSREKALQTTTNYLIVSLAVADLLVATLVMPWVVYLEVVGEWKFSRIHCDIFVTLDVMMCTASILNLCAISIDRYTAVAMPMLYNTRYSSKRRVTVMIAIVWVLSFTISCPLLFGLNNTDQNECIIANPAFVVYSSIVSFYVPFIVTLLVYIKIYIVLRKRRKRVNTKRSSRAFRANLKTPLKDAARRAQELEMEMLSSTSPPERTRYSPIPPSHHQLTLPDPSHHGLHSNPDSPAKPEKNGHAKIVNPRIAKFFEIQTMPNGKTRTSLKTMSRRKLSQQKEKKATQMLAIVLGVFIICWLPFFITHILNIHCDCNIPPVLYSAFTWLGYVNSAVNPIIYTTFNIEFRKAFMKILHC

In the next experiment the target is dopamine D2 receptor (Rattus norvegicus, UniProt P61169). Kind of experiment: Radioligand competition assay, D2 receptor, rat corpus striatum membranes, [3H]nemonapride. The note with it: rat striatal membranes, 90 minutes at 30° C, read-out: Affinity at rat dopamine receptors, D2. The experiment is classed as binding.

The values below come from patent US8063060B2, “R(−)-11-hydroxyaporphine derivatives and uses thereof” (The McLean Hospital Corporation, priority 2004, dated 2011).

As to “R(−)-2-fluoro-apomorphine [Compound 20, reference compound]”, the Ki was 231 ± 11 nM on dopamine D1 receptor and 73.2 ± 11.9 nM at dopamine D2 receptor.
